The values below are quoted from earlier work in publication PMC9303367, “Synthesis of Aminoethyl‐Substituted Piperidine Derivatives as σ1 Receptor Ligands with Antiproliferative Properties” (Chemmedchem, 2022).

Amino acid sequences for entries named in this document (tags omitted).
UniProt Q60492, whole entry: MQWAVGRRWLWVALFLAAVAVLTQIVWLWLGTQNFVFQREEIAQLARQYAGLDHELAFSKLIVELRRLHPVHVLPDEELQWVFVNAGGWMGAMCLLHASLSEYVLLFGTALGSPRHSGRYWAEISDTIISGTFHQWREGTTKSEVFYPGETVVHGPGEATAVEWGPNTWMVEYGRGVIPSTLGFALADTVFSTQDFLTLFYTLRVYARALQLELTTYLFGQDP

The data set has as its target T1, σ1 receptor (Cavia porcellus, UniProt Q60492).
T1 construct: The thawed membrane preparation of guinea pig brain cortex; tissue Harlan-Winkelmann, Borchen, Germany; host or cells: guinea pig brain (cortex) membrane homogenate
The following applies: lead compounds 1–3; cited from earlier work.

Structures are written as SMILES.

For the compound `c1ccc(CNCCC2CCCC(c3ccccc3)O2)cc1` (stereo not shown) [compound 2], the “σ1 : σ2 selectivity” value was 236.
